Laboratory results taken from US20260226096A1, “MODIFIED PROTEINS OR PEPTIDES FOR COVALENT TARGETING” (YEDA RESEARCH AND DEVELOPMENT CO. LTD., priority 2023, published 2026).

How the values were obtained:
[1] = Differential scanning fluorimetry for Im-E9 complexes; format: physicochemical; details: SYPRO Orange, protein 40 μM
E9 = biological target: T1, E9 (Escherichia coli, UniProt P09883); assay: Reaction between Im9 methacrylate and E9, intact protein LCMS; details: room temperature
T1 sequence (P09883 450-582 limits assumed): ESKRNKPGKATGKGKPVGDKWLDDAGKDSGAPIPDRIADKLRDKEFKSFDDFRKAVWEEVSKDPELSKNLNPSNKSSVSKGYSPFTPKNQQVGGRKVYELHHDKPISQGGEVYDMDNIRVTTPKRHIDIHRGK

## MELKHSISDYTEAEFLQLVTTIANADTSSEEELVKLVTHF(mC)EMTEHPSGSDLIYYPKEG DDDSPSGIVNTVKQWRAANGKSGFKQGLEHHHHHH [methacrylate-modified Im9 mutant]
[1]
  unfolding (melting) temperature: around 50 °C
E9
  conversion to the covalent complex within 16 hours: near quantitative conversion
